{"source": "patent US20260216206A1", "about": "(MEDINCELL SA, priority 2023, published 2026)", "test": "Open-label SAD and MAD study, pharmacokinetics in healthy subjects and patients (Example 5)", "format": "in vivo, humans", "method": "This study was an open-label, SAD, and MAD study to evaluate the safety, tolerability, and PK of Formulation 1 in healthy subjects and patients with a diagnosis of schizophrenia or schizoaffective disorder. Healthy subjects received subtherapeutic Formulation 1 doses of up to 105 mg and patients received therapeutic doses of up to 566 mg. […] Subjects and patients who met screening eligibility were assigned to 1 of 8 active cohorts, or the Vehicle Cohort, as detailed in Table 5.1 below.\nAll cohorts included assessments of safety, tolerability, and intensive PK sampling.\nExcept for the starting dose of 70 mg, the study followed an adaptive design in which the decision to dose-escalate with Formulation 1 was based on a review of the PK and safety data from the preceding lower dose of Formulation 1.\nAn extensive PK collection scheme was applied following the last oral dose to fully characterize the PK at steady-state.\nIn multiple-dose cohorts, the 3 doses of Formulation 1 were administered on day 1, day 29 (week 4) and day 57 (week 8), respectively."}
{"smiles": "Cc1cc2c(s1)Nc1ccccc1N=C2N1CCN(C)CC1", "note": "[olanzapine, 2-methyl-4-(4-methyl-1-piperazinyl)-10H-thieno[2,3-b][1,5]benzodiazepine]", "values": [{"measurement": "Dose-normalized AUC, Geo LS Mean", "setting": "Cohorts 1, 2, 3, 4, 5 and 6, AUC0-∞ for Formulation 1, AUC0-tau (28 days) for oral olanzapine", "result": "42.09 [h*ng/mL]/mg"}, {"measurement": "Dose-normalized AUC, Geo LS Mean", "setting": "Cohorts 4, 5 and 6, AUC0-∞ for Formulation 1, AUC0-tau (28 days) for oral olanzapine", "result": "38.12 [h*ng/mL]/mg"}, {"measurement": "Dose-normalized AUC, Geo LS Mean", "setting": "Cohorts 8 and 9, AUC0-tau 3rd dosing interval for Formulation 1, AUC0-tau28 d for oral olanzapine", "result": "49.25 [h*ng/mL]/mg"}]}
